Test results published in US4605654A, “2-(arylalkyloxymethyl)morpholines and the central nervous system compositions” (P. F. Medicament, priority 1984, dated 1986).

Test: Solubility in water
Details: soluble to x% in water; salt as prepared

2-[(3-Phenylpropyloxy)methyl]morpholine hydrogen oxalate [Example 16]
Solubility in water: 10%
